The entries are a selection whose mix differs from that of the whole data set. Activity calls are given as the source filed them.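 Rule for the calls: active = inhibition above a per-campaign cutoff: mean of compounds within control limits plus 3 SD (cut at about 15% in these data); inactive = the rest.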

By UniProt entry, the sequences of proteins in these tests, tags left out.
UniProt P02675, whole entry, looked up: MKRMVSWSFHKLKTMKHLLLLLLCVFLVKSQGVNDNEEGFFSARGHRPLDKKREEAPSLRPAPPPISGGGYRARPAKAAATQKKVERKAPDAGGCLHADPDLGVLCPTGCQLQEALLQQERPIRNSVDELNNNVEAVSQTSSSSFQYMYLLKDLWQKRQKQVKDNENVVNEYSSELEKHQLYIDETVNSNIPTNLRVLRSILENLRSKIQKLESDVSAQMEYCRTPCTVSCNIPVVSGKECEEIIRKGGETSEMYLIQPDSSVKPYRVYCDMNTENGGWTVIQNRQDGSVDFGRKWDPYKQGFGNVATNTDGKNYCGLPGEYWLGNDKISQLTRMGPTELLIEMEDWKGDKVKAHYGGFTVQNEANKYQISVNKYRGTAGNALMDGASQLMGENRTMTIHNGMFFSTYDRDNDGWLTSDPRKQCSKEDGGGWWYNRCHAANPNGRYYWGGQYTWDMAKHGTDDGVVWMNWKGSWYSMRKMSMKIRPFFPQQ

The test deals with Fibrinogen beta chain (Homo sapiens) (UniProt P02675). Kind of test: inhibitors of Tn6 peptide binding to fibrin DD(E), primary screen, biochemical, fluorescence polarization, human fibrin, Tn6 probe (AID 720509).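 Note: 0% = median of all compound wells on the plate and 100% = blocking peptide control.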 The conditions noted are these: Fibrin DD(E) TRITC-Tn6 fluorescence polarization displacement; at 8.3 µM; hits give high values.
A word on the inhibition: it is the drop in the measured response relative to a control, in per cent. Take `CCC(=O)N(c1ccccc1)C1(COC)CCN(CCc2cccs2)CC1`: the inhibition is inactive: 8.59%.

For the compound `CCC(=O)N(c1ccccc1)C1(COC)CCN(CCn2nnn(CC)c2=O)CC1`, the inhibition was inactive: 3.71%.

(Values after PubChem BioAssay AID720509 (The Scripps Research Institute Molecular Screening Center, 2013).)
